This passage reports percent of control (FP) results from PubChem BioAssay AID1224905 (ICCB-Longwood Screening Facility, Harvard Medical School, 2016).

The chains behind the UniProt entries cited, without tags or fusion partners.
UniProt P08753, whole entry, looked up: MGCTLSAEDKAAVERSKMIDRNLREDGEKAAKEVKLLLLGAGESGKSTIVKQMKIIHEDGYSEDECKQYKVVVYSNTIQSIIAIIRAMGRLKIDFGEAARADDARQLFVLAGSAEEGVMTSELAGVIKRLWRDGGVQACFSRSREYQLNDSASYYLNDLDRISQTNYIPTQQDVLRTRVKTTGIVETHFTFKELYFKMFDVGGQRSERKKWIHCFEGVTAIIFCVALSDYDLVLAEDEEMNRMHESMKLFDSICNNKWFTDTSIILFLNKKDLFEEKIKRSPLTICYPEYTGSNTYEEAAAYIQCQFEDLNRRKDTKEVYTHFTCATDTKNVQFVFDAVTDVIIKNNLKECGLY

Hit rate of the full screen: of about 210,000 compounds, about 880 (0.42%) were called active. Shown is part of a subset that was picked to be rich in actives. Unmarked numbers belong to inactive results.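 Rule for the calls: active = replicate mean at 85% of control or lower with very high polarization wells dropped (limit read from the data); inactive = the rest.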

The target of the experiment is Guanine nucleotide-binding protein G(i) subunit alpha-3 (Rattus norvegicus) (UniProt P08753). The experiment in a line: inhibitors of GIV peptide binding to Galpha-i3, primary screen, biochemical, fluorescence polarization, FITC-GIV GBA peptide, rat Galphai3 (AID 1224905).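 Note: lower values mean more displacement of the GIV peptide from Galpha-i3.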 As to conditions: 90 min, active compounds read low. On the technique in general: Polarisation of emitted light reports the rotation of a fluorescent probe.
Turning to `CN1CCc2c(c(S)[nH]c(=S)c2C#N)C1`, the percent of control (FP) is 35% (active).

`O=C(NCCN1CCOCC1)c1cc2cccnc2n(Cc2ccccc2)c1=O`: the percent of control (FP) is 108% [scaled: aluminum fluoride 0%, vehicle 100%].

Consider `CCOC(=O)C1CC2CCCN2C12C(=O)N(Cc1ccccc1)c1ccccc12` (stereo not given), for which the percent of control (FP) was 101%.

As for `O=c1c2ccccc2nc(COc2ccc(Cl)cc2)n1-c1ccc(Br)cn1`, the percent of control (FP) was 98.1%.

As for `Cc1nc2nc(-c3ccc(C(C)(C)C)cc3)nn2c(C)c1CC(=O)N1CCN(CCO)CC1`, the percent of control (FP) is 102% [scaled: aluminum fluoride 0%, vehicle 100%].
